Source: patent US9694016B2 (Novartis AG, priority 2013, dated 2017)

Sequences of proteins named here, by UniProt entry; tags and fusion partners are left off.
UniProt P04049, whole entry Y340E/Y341E: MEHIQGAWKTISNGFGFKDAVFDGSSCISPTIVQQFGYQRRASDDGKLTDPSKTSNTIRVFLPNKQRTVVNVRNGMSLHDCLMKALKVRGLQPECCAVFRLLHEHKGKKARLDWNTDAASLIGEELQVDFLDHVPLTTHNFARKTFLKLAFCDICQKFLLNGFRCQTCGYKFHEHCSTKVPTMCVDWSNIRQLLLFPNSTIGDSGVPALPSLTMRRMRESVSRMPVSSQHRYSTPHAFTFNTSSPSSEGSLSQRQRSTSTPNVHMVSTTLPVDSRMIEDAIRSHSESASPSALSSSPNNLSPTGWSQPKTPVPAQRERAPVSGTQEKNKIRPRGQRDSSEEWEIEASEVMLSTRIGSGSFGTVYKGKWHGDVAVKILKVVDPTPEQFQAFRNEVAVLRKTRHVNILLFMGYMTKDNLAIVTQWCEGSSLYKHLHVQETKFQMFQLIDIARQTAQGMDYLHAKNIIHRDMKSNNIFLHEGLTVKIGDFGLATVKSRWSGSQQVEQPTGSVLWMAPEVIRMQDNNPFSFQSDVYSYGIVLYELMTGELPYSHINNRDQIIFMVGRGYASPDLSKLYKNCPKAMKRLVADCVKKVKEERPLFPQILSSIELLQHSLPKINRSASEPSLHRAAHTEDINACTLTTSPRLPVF

The compounds below were run against C-Raf FL (full-length C-Raf protein, Y340E and Y341E activating mutations) (Homo sapiens (Human), UniProt P04049, Y340E/Y341E). Settings: AlphaScreen, 60 min pre-incubation, reaction 1 hour at room temperature; read-out: c-Raf FL IC-50.
Format: biochemical

Compound | IC50
Cc1ncc(NC(=O)c2ccnc(C3CC3)c2)cc1-c1cc(N2CCOCC2)nc(N2CC(C)(O)C2)c1 [Example 1102, 2-cyclopropyl-N-(2′-(3-hydroxy-3-methylazetidin-1-yl)-2-methyl-6′-morpholino-[3,4′-bipyridin]-5-yl)isonicotinamide] | 0.85 nM
Cc1ncc(NC(=O)c2ccnc(C(F)F)c2)cc1-c1cc(N2CCOCC2)nc(N2CC(C)(O)C2)c1 [Example 1103, 2-(difluoromethyl)-N-(2′-(3-hydroxy-3-methylazetidin-1-yl)-2-methyl-6′-morpholino-[3,4′-bipyridin]-5-yl)isonicotinamide] | 1.44 nM
Cc1ncc(NC(=O)c2ccnc(C(F)(F)F)c2)cc1-c1cc(N2CCOCC2)nc(N2CC(C)(O)C2)c1 [Example 1104, N-(2′-(3-hydroxy-3-methylazetidin-1-yl)-2-methyl-6′-morpholino-[3,4′-bipyridin]-5-yl)-2-(trifluoromethyl)isonicotinamide] | 1.43 nM
Cc1ncc(NC(=O)c2ccnc(C(C)(F)F)c2)cc1-c1cc(N2CCOCC2)nc(N2CC(C)(O)C2)c1 [Example 1105, 2-(1,1-difluoroethyl)-N-(2′-(3-hydroxy-3-methylazetidin-1-yl)-2-methyl-6′-morpholino-[3,4′-bipyridin]-5-yl)isonicotinamide] | 1.19 nM
Cc1ncc(NC(=O)c2ccnc(C(C)(C)F)c2)cc1-c1cc(N2CCOCC2)nc(N2CC(C)(O)C2)c1 [Example 1106, 2-(2-fluoropropan-2-yl)-N-(2′-(3-hydroxy-3-methylazetidin-1-yl)-2-methyl-6′-morpholino-[3,4′-bipyridin]-5-yl)isonicotinamide] | 1.82 nM
Cc1ncc(NC(=O)c2cnnc(C(F)(F)F)c2)cc1-c1cc(N2CCOCC2)nc(N2CC(C)(O)C2)c1 [Example 1107, N-(2′-(3-hydroxy-3-methylazetidin-1-yl)-2-methyl-6′-morpholino-[3,4′-bipyridin]-5-yl)-6-(trifluoromethyl)pyridazine-4-carboxamide] | 1.75 nM
Cc1ncc(NC(=O)c2ccnc(C(C)(C)C#N)c2)cc1-c1cc(N2CCOCC2)nc(N2CC(C)(O)C2)c1 [Example 1108, 2-(2-cyanopropan-2-yl)-N-(2′-(3-hydroxy-3-methylazetidin-1-yl)-2-methyl-6′-morpholino-[3,4′-bipyridin]-5-yl)isonicotinamide] | 2.78 nM
Cc1ncc(NC(=O)c2ccnc(C3(C#N)CC3)c2)cc1-c1cc(N2CCOCC2)nc(N2CC(C)(O)C2)c1 [Example 1109, 2-(1-cyanocyclopropyl)-N-(2′-(3-hydroxy-3-methylazetidin-1-yl)-2-methyl-6′-morpholino-[3,4′-bipyridin]-5-yl)isonicotinamide] | 1.45 nM
Cc1ccc(NC(=O)c2ccnc(C(C)(C)C#N)c2)cc1-c1cc(N2CCOCC2)nc(N2CC(C)(O)C2)c1 [Example 1110, 2-(2-cyanopropan-2-yl)-N-(3-(2-(3-hydroxy-3-methylazetidin-1-yl)-6-morpholinopyridin-4-yl)-4-methylphenyl)isonicotinamide] | 0.75 nM
CCn1cc(C(=O)Nc2ccc(C)c(-c3cc(N4CCOCC4)nc(N4CCOCC4)c3)c2)cc(C(F)(F)F)c1=O [Example 1114, N-(3-(2,6-dimorpholinopyridin-4-yl)-4-methylphenyl)-1-ethyl-6-oxo-5-(trifluoromethyl)-1,6-dihydropyridine-3-carboxamide] | 0.68 nM
Cc1ncc(NC(=O)c2ccnc(C(F)F)c2)cc1-c1cc(N2CCOCC2)nc(N2CCOCC2)c1 [Example 1122, 2-(difluoromethyl)-N-(2-methyl-2′,6′-dimorpholino-[3,4′-bipyridin]-5-yl)isonicotinamide] | 0.37 nM
Cc1ncc(NC(=O)c2ccnc(C(C)(C)C#N)c2)cc1-c1cc(N2CCOCC2)nc(N2CCOCC2)c1 [Example 1123, 2-(2-cyanopropan-2-yl)-N-(2-methyl-2′,6′-dimorpholino-[3,4′-bipyridin]-5-yl)isonicotinamide] | 1.34 nM
Cc1ncc(NC(=O)c2ccnc(S(C)(=O)=O)c2)cc1-c1cc(N2CCOCC2)nc(N2CCOCC2)c1 [Example 1124, N-(2-methyl-2′,6′-dimorpholino-[3,4′-bipyridin]-5-yl)-2-(methylsulfonyl)isonicotinamide] | 1.58 nM
CCn1cc(C(=O)Nc2cnc(C)c(-c3cc(N4CCOCC4)nc(N4CCOCC4)c3)c2)cc(C(F)(F)F)c1=O [Example 1125, 1-ethyl-N-(2-methyl-2′,6′-dimorpholino-[3,4′-bipyridin]-5-yl)-6-oxo-5-(trifluoromethyl)-1,6-dihydropyridine-3-carboxamide] | 0.93 nM
Cc1ccc(NC(=O)c2ccnc(C(F)(F)F)c2)cc1-c1cc(-c2c(C)n[nH]c2C)nc(N2CCOCC2)c1 [Example 1127, N-(3-(2-(3,5-dimethyl-1H-pyrazol-4-yl)-6-morpholinopyridin-4-yl)-4-methylphenyl)-2-(trifluoromethyl)isonicotinamide] | 0.38 nM

Now from value to compound:

IC50 | Compound
0.24 nM | Cc1ccc(NC(=O)c2ccnc(C(F)(F)F)c2)cc1-c1cc(N2CCOCC2)nc(N2CCOCC2)c1 [Example 1112, N-(3-(2,6-dimorpholinopyridin-4-yl)-4-methylphenyl)-2-(trifluoromethyl)isonicotinamide]
0.37 nM | Cc1ccc(NC(=O)c2ccnc(C(C)(C)C#N)c2)cc1-c1cc(N2CCOCC2)nc(N2CCOCC2)c1 [Example 1113, 2-(2-cyanopropan-2-yl)-N-(3-(2,6-dimorpholinopyridin-4-yl)-4-methylphenyl)isonicotinamide]
0.19 nM | Cc1ccc(NC(=O)c2ccnc(C(F)F)c2)cc1-c1cc(N2CCOCC2)nc(N2CCOCC2)c1 [Example 1115, 2-(difluoromethyl)-N-(3-(2,6-dimorpholinopyridin-4-yl)-4-methylphenyl)isonicotinamide]
0.22 nM | Cc1ccc(NC(=O)c2cccc(C(F)F)c2)cc1-c1cc(N2CCOCC2)nc(N2CCOCC2)c1 [Example 1116, 3-(difluoromethyl)-N-(3-(2,6-dimorpholinopyridin-4-yl)-4-methylphenyl)benzamide]
0.3 nM | Cc1ccc(NC(=O)c2ccnc(C(C)C)c2)cc1-c1cc(N2CCOCC2)nc(N2CCOCC2)c1 [Example 1117, N-(3-(2,6-dimorpholinopyridin-4-yl)-4-methylphenyl)-2-isopropylisonicotinamide]
0.3 nM | Cc1ccc(NC(=O)c2ccnc(S(C)(=O)=O)c2)cc1-c1cc(N2CCOCC2)nc(N2CCOCC2)c1 [Example 1118, N-(3-(2,6-dimorpholinopyridin-4-yl)-4-methylphenyl)-2-(methylsulfonyl)isonicotinamide]
0.35 nM | Cc1ncc(NC(=O)c2ccnc(C(C)C)c2)cc1-c1cc(N2CCOCC2)nc(N2CCOCC2)c1 [Example 1119, 2-isopropyl-N-(2-methyl-2′,6′-dimorpholino-[3,4′-bipyridin]-5-yl)isonicotinamide]
0.28 nM | Cc1ncc(NC(=O)c2ccnc(C(F)(F)F)c2)cc1-c1cc(N2CCOCC2)nc(N2CCOCC2)c1 [Example 1120, N-(2-methyl-2′,6′-dimorpholino-[3,4′-bipyridin]-5-yl)-2-(trifluoromethyl)isonicotinamide]
0.26 nM | Cc1ncc(NC(=O)c2cccc(C(F)F)c2)cc1-c1cc(N2CCOCC2)nc(N2CCOCC2)c1 [Example 1121, 3-(difluoromethyl)-N-(2-methyl-2′,6′-dimorpholino-[3,4′-bipyridin]-5-yl)benzamide]
